From PubChem BioAssay AID504832 (National Center for Advancing Translational Sciences (NCATS), 2011)
The entries are a selection whose mix differs from that of the whole data set. Some tests of the compounds listed are not included; inactive here does not mean inactive elsewhere. Results filed as inconclusive are left out. Calls of active or inactive are those of the source. Calls come from the whole dose curve; as a rule, active = well fitted inhibition curve with a large enough effect; inconclusive = small, poorly fitted or top-dose-only effect, or another doubt; inactive = no such curve, though single readings can be large or run the other way.

Test: Primary qHTS for delayed death inhibitors of the malarial parasite plastid, 48 hour incubation
Settings: P. falciparum luciferase growth in erythrocytes; at 28.7 µM (top of the series)
From the text: The goal of this screen is to discover new antimalarial compounds that act by inhibiting the development of the apicoplast in the malarial parasite Plasmodium falciparum. The biochemical processes that make this organelle essential for erythrocytic stage parasites are not well understood. However, antibiotics such as azithromycin and tetracycline, which target the apicoplast translational machinery, have a potent antimalarial effect.
We have developed a cell-based assay that measures parasite growth based on the expression of an integrated copy of a firefly luciferase reporter. To detect small molecules that cause this "delayed death" phenotype, erythrocytes infected with the luciferase-expressing parasites were incubated with compounds for either one or two generations, corresponding to 48 and 96 hours, respectively. […] Growth inhibition is detected by a decrease in luciferase activity. […]
Four microliters of culture medium (RPMI 1640 with 0.5% w/v Albumax (GIBCO), 24 mM sodium bicarbonate and 10 ug/mL gentamycin) were dispensed by a Multi-drop Combi into white solid 1536-well plates (Grenier) and 23 nL compound was added by a pin tool. […] Two microliters of luciferase detection reagent was added and luminescence was detected by a ViewLux (PerkinElmer) reader.
% is set by controls: 0 for no effect and ±100 for the full control effect.

Row | Compound | activity change, negative = inhibition
1 | CC(C)N1C(=O)CC2(CCN(CCOC(=O)C(O)(c3ccccc3)c3ccccc3)CC2)C1=O | inactive: 59.2%
2 | C=CCN1CCN(CCOC(=O)C(O)(c2ccccc2)c2ccccc2)CC1 | inactive: 17.2%
